## Antibody variant affinities, Ab-14 light chain, assay 1

Reference: Engelhart et al. 2022, doi:10.1038/s41597-022-01779-4. File: FLAb, binding data.

All variants were tested on one target, the spike HR2 peptide PDVDLGDISGINAS (SARS-CoV-2).

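The starting antibody came from a phage panning campaign against this peptide. Library AAYL50 holds single substitutions and randomly drawn double and triple substitutions in the CDRs. AlphaSeq pools MATa yeast showing the antibodies with MATalpha yeast showing the peptide. After mating in shaken culture at 30 °C for 16 h, diploids were selected and their barcode pairs sequenced. Scores were corrected for input abundance and mapped to Kd with protein pairs of known affinity run in the same pool. There are three technical replicates.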

Parent scFv Ab-14: VH joined to VL by a (GGGGS)3 linker. Changes lie in the light chain CDRs alone.
VH: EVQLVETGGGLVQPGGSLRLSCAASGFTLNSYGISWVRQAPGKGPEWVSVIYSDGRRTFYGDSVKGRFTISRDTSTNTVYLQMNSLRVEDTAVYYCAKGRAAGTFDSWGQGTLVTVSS
VL: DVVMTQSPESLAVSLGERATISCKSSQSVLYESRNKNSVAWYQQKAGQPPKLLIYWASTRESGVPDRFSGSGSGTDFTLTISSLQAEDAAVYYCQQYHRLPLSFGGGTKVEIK

Substitutions are numbered in sequence along the VL above, starting at 1 (not Kabat).
The read-out is the apparent dissociation constant on a log10 scale (nM): the lower, the stronger.
A pair that was not seen in that replicate is written "n.d."; this usually means weak binding, but a binder can also be missed.
Parent in this assay: reference entry 0.65, copy in this library 1.68.

| changes | log10 Kd (nM) by replicate | control signals |
|---|---|---|
| E61L/Y97K/L102D | 5.35 n.d. n.d. | 3 of 9 (3.63) |
| S58K/E61R/S103C | n.d. 4.06 n.d. | 1 of 9 (3.64) |
| N35P/S38W/S58C | 3.31 n.d. n.d. | 1 of 9 (3.66) |
| E32H/S33E/V39M | 2.18 2.00 1.58 | 0 of 9 |
| S58D/R99Q/P101E | n.d. 4.54 4.56 | 2 of 9 (3.62) |
| S33R/W56P/A57V | n.d. 4.89 n.d. | 0 of 9 |
| N35G/S58R/P101D | n.d. n.d. n.d. | 0 of 9 |
| S28M/V39L/S58A | 2.97 2.84 3.38 | 1 of 9 (2.75) |
| S26F/S28I/W56Q | 0.75 1.12 0.95 | 0 of 9 |
| S33A/R60S/Q95P | n.d. n.d. n.d. | 1 of 9 (3.44) |
| S25T/S33E/E61D | 0.52 0.68 0.67 | 1 of 9 (5.21) |
| E32C/S33F | n.d. n.d. 3.65 | 8 of 9 (4.55) |
| Y97Q/P101E/L102E | n.d. n.d. n.d. | 0 of 9 |
| Q27T/A40S/Q96R | 3.39 n.d. 5.48 | 0 of 9 |
| E32C/Q96W/L102P | 5.11 4.71 4.38 | 6 of 9 (4.86) |
| Q96P/P101E/S103N | n.d. 4.97 n.d. | 2 of 9 (3.89) |
| S28Q/A57S/L100V | n.d. n.d. n.d. | 1 of 9 (5.99) |
| Y31G/S33T/E61I | 0.50 0.78 0.48 | 2 of 9 (3.74) |
| Y31W/N35A/K36A | 1.65 1.77 1.65 | 5 of 9 (4.33) |
| Q27M/Y31C/S62H | 2.60 2.25 2.61 | 0 of 9 |
| K24F/R34M/L100R | n.d. n.d. n.d. | 2 of 9 (4.16) |
| S28I/R34E/H98N | 0.69 1.13 0.90 | 2 of 9 (3.11) |
| Q27L/E61T/S103M | 1.12 1.26 1.27 | 2 of 9 (4.64) |
| Q27P/Y97N/P101T | n.d. n.d. n.d. | 3 of 9 (4.21) |
| E32S/A57G/R99L | 0.73 0.88 0.77 | 2 of 9 (3.69) |
| S25Q/S33E/T59Y | 0.91 1.23 1.22 | 0 of 9 |
| Y31R/A57M/H98I | n.d. n.d. 3.54 | 0 of 9 |
| S26L/S28K/N35E | 2.44 2.20 2.85 | 2 of 9 (4.03) |
| V29F/S33W/A40Q | n.d. 3.05 n.d. | 0 of 9 |
| V29M/R60T/L100R | 4.76 n.d. 4.13 | 1 of 9 (5.34) |
| S25C/S33D/S58F | 1.33 1.61 1.68 | 0 of 9 |
| L30K/K36A | 0.64 0.34 0.84 | 0 of 9 |
| N35T/E61L/R99D | 1.37 1.46 1.63 | 3 of 9 (3.66) |
| S26W/R99Y/S103P | n.d. n.d. n.d. | 0 of 9 |
| S26R/L100T | 0.99 1.10 0.99 | 0 of 9 |

The last 3 entries again:

changes	log10 Kd (nM) by replicate	control signals
N35T/E61L/R99D	1.37 1.46 1.63	3 of 9 (3.66)
S26W/R99Y/S103P	n.d. n.d. n.d.	0 of 9
S26R/L100T	0.99 1.10 0.99	0 of 9

Nonspecific signal, from three strains lacking the peptide, appeared in 18% of pairings of library AAYL50, centred on 4.19 (5% of these signals below 2.99); values are not corrected for it. For each scFv, signals with the empty controls are counted beside the result, with their mean in brackets.